{
  "sequences": {"note": "Protein sequences, listed by entry. Tags and fused reporters are not part of them. Lines headed by an entry give the natural chain unless they say otherwise; changes in a name come on top.", "UniProt Q64663": "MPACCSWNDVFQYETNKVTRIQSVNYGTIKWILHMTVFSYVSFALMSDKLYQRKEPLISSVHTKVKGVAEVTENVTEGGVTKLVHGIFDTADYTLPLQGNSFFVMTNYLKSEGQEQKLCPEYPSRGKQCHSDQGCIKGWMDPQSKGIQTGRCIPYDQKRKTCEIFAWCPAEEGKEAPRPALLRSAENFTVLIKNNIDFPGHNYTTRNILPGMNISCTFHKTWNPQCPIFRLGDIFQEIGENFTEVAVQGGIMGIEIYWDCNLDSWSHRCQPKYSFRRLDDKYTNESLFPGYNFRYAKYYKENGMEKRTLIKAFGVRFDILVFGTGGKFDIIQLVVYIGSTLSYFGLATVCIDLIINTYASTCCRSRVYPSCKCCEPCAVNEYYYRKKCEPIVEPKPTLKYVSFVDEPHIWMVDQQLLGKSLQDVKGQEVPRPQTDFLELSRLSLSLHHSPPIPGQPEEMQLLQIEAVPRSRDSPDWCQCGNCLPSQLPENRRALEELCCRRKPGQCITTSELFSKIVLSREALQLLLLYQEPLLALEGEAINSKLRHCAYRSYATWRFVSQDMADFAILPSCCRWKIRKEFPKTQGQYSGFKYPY", "UniProt Q99572": "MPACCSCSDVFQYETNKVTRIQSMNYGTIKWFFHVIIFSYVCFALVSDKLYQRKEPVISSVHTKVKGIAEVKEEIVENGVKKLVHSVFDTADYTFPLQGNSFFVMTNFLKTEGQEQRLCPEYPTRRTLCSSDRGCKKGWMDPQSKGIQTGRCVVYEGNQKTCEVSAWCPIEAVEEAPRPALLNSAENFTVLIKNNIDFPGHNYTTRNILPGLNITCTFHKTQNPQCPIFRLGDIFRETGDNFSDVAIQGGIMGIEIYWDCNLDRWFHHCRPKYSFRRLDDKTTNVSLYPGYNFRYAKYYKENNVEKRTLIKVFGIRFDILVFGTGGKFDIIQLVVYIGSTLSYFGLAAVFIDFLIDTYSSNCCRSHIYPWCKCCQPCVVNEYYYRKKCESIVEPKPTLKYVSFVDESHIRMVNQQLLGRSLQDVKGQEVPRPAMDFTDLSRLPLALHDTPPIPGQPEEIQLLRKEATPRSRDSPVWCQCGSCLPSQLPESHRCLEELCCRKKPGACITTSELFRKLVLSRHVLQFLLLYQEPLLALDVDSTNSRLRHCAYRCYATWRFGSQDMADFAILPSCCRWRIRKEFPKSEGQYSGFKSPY"},
  "source": "patent US9102686B2",
  "about": "“5,6,7,8,9,10-hexahydro-6,10-epimino[1,2,4]triazolo[4,3-a]azocines as P2X7 modulators” (Janssen Pharmaceutica NV, priority 2013, dated 2015)",
  "key": {"rat P2X7 [1]": {"target": "T1, rat P2X7 (Rattus norvegicus (Rat), UniProt Q64663)", "assay": "Ca2+ flux (FLIPR) in 1321N1 cells expressing recombinant rat P2X7 channel", "type": "cell-based"}, "P2X7 [2]": {"target": "T2, P2X7 (Homo sapiens (Human), UniProt Q99572)", "assay": "Ca2+ flux (FLIPR) in 1321N1 cells expressing recombinant human P2X7 channel", "type": "cell-based"}, "rat P2X7 [3]": {"target": "T1, rat P2X7", "assay": "Radioligand binding, rat P2X7-1321N1 cell membranes, tritiated A-804598"}, "P2X7 [4]": {"target": "T2, P2X7", "assay": "Radioligand binding, human P2X7-1321N1 cell membranes, tritiated A-804598", "description": "P2X7 Antagonism in Recombinant hP2X7 Cells: (a) Ca^2+ Flux (b) Radioligand Binding\n(B) Radioligand binding: human or rat P2X7-1321N1 cells were collected and frozen @−80° C. On the day of the experiment, cell membrane preparations were made according to standard published methods. The total assay volume was 100 μl:10 μl compound (10×)+(b) 40 μl tracer (2.5×)+50 μl membrane (2×). The tracer used for the assay was tritiated A-804598. The compound can be prepared as described in the literature. […] The assay was terminated by filtration (GF/B filters pre-soaked with 0.3% PEI) and washed with washing buffer (Tris-HCl 50 mM). The IC50 generated in the binding assay was corrected for tracer concentration and affinity of the tracer to derive at the affinity (Ki) of the test compounds."}, "P2X7 [5]": {"target": "T2, P2X7", "assay": "cell-based"}, "[6]": {"settings": "rat P2X7-1321N1 membranes, tracer tritiated A-804598, 1 hour 4° C., read-out: P2X7 rat Ki"}},
  "note": "Read-outs that look alike come from different tables or passages of the source.",
  "data": [
    {"smiles": "O=C(c1cccc(C(F)(F)F)c1Cl)N1[C@H]2CCC[C@@H]1c1nnc(-c3cscn3)n1C2", "note": "(single isomer, unassigned) [Example 8, (6S*,10R*)-11-{[2-Chloro-3-(trifluoromethyl)phenyl]carbonyl}-3-(1,3-thiazol-4-yl)-5,6,7,8,9,10-hexahydro-6,10-epimino[1,2,4]triazolo[4,3-a]azocine]", "values": [
      {"measurement": "IC50", "setting": "rat P2X7 [1]", "value": 2.5, "unit": "nM"},
      {"measurement": "IC50", "setting": "P2X7 [2]", "value": 9.7, "unit": "nM"},
      {"measurement": "Ki", "setting": "rat P2X7 [3]", "value": 1.3, "unit": "nM"},
      {"measurement": "Ki", "setting": "P2X7 [4]", "value": 10, "unit": "nM"}
    ]},
    {"smiles": "O=C(c1cccc(C(F)(F)F)c1Cl)N1[C@@H]2CCC[C@H]1c1nnc(-c3ccc(F)cn3)n1C2", "note": "(single isomer, unassigned) [Example 12, (6R*,10S*)-11-{[2-Chloro-3-(trifluoromethyl)phenyl]carbonyl}-3-(5-fluoropyridin-2-yl)-5,6,7,8,9,10-hexahydro-6,10-epimino[1,2,4]triazolo[4,3-a]azocine]", "values": [
      {"measurement": "IC50", "setting": "rat P2X7 [1]", "value": 36.6, "unit": "nM"},
      {"measurement": "IC50", "setting": "P2X7 [5]", "value": 126, "unit": "nM"},
      {"measurement": "IC50", "setting": "P2X7 [2]", "value": 13.3, "unit": "nM"},
      {"measurement": "Ki", "setting": "rat P2X7 [3]", "value": 3.4, "unit": "nM"},
      {"measurement": "Ki", "setting": "P2X7 [4]", "value": 12.6, "unit": "nM"}
    ]},
    {"smiles": "Cc1cccc(-c2nnc3n2C[C@@H]2CCC[C@H]3N2C(=O)c2cccc(C(F)(F)F)c2Cl)n1", "note": "(single isomer, unassigned) [Example 23, (6S*,10R*)-11-{[2-Chloro-3-(trifluoromethyl)phenyl]carbonyl}-3-(6-methylpyridin-2-yl)-5,6,7,8,9,10-hexahydro-6,10-epimino[1,2,4]triazolo[4,3-a]azocine]", "values": [
      {"measurement": "IC50", "setting": "rat P2X7 [1]", "value": 56, "unit": "nM"},
      {"measurement": "IC50", "setting": "P2X7 [2]", "value": 40.4, "unit": "nM"},
      {"measurement": "Ki", "setting": "rat P2X7 [3]", "value": 5, "unit": "nM"},
      {"measurement": "Ki", "setting": "P2X7 [4]", "value": 24, "unit": "nM"}
    ]},
    {"smiles": "COc1ccnc(-c2nnc3n2C[C@@H]2CCC[C@H]3N2C(=O)c2cccc(C(F)(F)F)c2Cl)c1", "note": "(single isomer, unassigned) [Example 26, (6S*,10R*)-11-{[2-Chloro-3-(trifluoromethyl)phenyl]carbonyl}-3-(4-methoxypyridin-2-yl)-5,6,7,8,9,10-hexahydro-6,10-epimino[1,2,4]triazolo[4,3-a]azocine]", "values": [
      {"measurement": "IC50", "setting": "rat P2X7 [1]", "value": 1.4, "unit": "nM"},
      {"measurement": "IC50", "setting": "P2X7 [5]", "value": 39.8, "unit": "nM"},
      {"measurement": "IC50", "setting": "P2X7 [2]", "value": 10, "unit": "nM"},
      {"measurement": "Ki", "setting": "rat P2X7 [3]", "value": 4, "unit": "nM"},
      {"measurement": "Ki", "setting": "P2X7 [4]", "value": 30.4, "unit": "nM"}
    ]},
    {"smiles": "O=C(c1cccc(C(F)(F)F)c1Cl)N1[C@H]2CCC[C@@H]1c1nnc(-c3ccccn3)n1C2", "note": "(single isomer, unassigned) [Example 33, (6R*,10S*)-11-{[2-Chloro-3-(trifluoromethyl)phenyl]carbonyl}-3-pyridin-2-yl-5,6,7,8,9,10-hexahydro-6,10-epimino[1,2,4]triazolo[4,3-a]azocine]", "values": [
      {"measurement": "IC50", "setting": "rat P2X7 [1]", "value": 11.3, "unit": "nM"},
      {"measurement": "IC50", "setting": "P2X7 [5]", "value": 43.7, "unit": "nM"},
      {"measurement": "IC50", "setting": "P2X7 [2]", "value": 13.4, "unit": "nM"},
      {"measurement": "Ki", "setting": "rat P2X7 [3]", "value": 3.2, "unit": "nM"},
      {"measurement": "Ki", "setting": "P2X7 [4]", "value": 10.5, "unit": "nM"}
    ]},
    {"smiles": "O=C(c1ccc(F)c(Cl)c1Cl)N1[C@H]2CC[C@@H]1c1nnc(-c3cnccn3)n1C2", "note": "[Example 47, (6S,9R)-10-[(2,3-Dichloro-4-fluorophenyl)carbonyl]-3-pyrazin-2-yl-6,7,8,9-tetrahydro-5H-6,9-epimino[1,2,4]triazolo[4,3-a]azepine]", "values": [
      {"measurement": "Ki", "setting": "rat P2X7 [3]; [6]", "value": 6.3, "unit": "nM"}
    ]},
    {"smiles": "O=C(c1cccc(C(F)(F)F)c1Cl)N1[C@H]2CC[C@@H]1c1nnc(-c3cccnc3)n1C2", "note": "[Example 48, (6S,9R)-10-{[2-Chloro-3-(trifluoromethyl)phenyl]carbonyl}-3-pyridin-3-yl-6,7,8,9-tetrahydro-5H-6,9-epimino[1,2,4]triazolo[4,3-a]azepine]", "values": [
      {"measurement": "Ki", "setting": "rat P2X7 [3]; [6]", "value": 15.8, "unit": "nM"}
    ]},
    {"smiles": "O=C(c1cccc(C(F)(F)F)c1Cl)N1[C@H]2CC[C@@H]1c1nnc(-c3ncc(F)cn3)n1C2", "note": "[Example 50, (6S,9R)-10-{[2-Chloro-3-(trifluoromethyl)phenyl]carbonyl}-3-(5-fluoropyrimidin-2-yl)-6,7,8,9-tetrahydro-5H-6,9-epimino[1,2,4]triazolo[4,3-a]azepine]", "values": [
      {"measurement": "IC50", "setting": "rat P2X7 [1]; 1321N1 cells, rat P2X7, 250 μM BzATP, read-out: FLIPR (rat) IC50", "value": 6780, "unit": "nM"},
      {"measurement": "Ki", "setting": "rat P2X7 [3]; [6]", "value": 10, "unit": "nM"},
      {"measurement": "Ki", "setting": "P2X7 [4]; human P2X7-1321N1 membranes, tracer tritiated A-804598, 1 hour 4° C., read-out: P2X7 human Ki", "value": 15.8, "unit": "nM"}
    ]},
    {"smiles": "O=C(c1cccc(C(F)(F)F)c1Cl)N1[C@H]2CC[C@@H]1c1nnc(-c3ccc(Cl)s3)n1C2", "note": "[Example 55, (6S,9R)-3-(5-Chlorothiophen-2-yl)-10-{[2-chloro-3-(trifluoromethyl)phenyl]carbonyl}-6,7,8,9-tetrahydro-5H-6,9-epimino[1,2,4]triazolo[4,3-a]azepine]", "values": [
      {"measurement": "Ki", "setting": "rat P2X7 [3]; [6]", "value": 15.8, "unit": "nM"}
    ]}
  ]
}
